Article PMC11946513, “Modulation of the substrate preference of a MYST acetyltransferase by a scaffold protein” (The Journal of Biological Chemistry, 2025)

Protein sequences, listed by entry. Tags and fused reporters are not part of them.
UniProt Q92794, whole entry, chain 1 of 2: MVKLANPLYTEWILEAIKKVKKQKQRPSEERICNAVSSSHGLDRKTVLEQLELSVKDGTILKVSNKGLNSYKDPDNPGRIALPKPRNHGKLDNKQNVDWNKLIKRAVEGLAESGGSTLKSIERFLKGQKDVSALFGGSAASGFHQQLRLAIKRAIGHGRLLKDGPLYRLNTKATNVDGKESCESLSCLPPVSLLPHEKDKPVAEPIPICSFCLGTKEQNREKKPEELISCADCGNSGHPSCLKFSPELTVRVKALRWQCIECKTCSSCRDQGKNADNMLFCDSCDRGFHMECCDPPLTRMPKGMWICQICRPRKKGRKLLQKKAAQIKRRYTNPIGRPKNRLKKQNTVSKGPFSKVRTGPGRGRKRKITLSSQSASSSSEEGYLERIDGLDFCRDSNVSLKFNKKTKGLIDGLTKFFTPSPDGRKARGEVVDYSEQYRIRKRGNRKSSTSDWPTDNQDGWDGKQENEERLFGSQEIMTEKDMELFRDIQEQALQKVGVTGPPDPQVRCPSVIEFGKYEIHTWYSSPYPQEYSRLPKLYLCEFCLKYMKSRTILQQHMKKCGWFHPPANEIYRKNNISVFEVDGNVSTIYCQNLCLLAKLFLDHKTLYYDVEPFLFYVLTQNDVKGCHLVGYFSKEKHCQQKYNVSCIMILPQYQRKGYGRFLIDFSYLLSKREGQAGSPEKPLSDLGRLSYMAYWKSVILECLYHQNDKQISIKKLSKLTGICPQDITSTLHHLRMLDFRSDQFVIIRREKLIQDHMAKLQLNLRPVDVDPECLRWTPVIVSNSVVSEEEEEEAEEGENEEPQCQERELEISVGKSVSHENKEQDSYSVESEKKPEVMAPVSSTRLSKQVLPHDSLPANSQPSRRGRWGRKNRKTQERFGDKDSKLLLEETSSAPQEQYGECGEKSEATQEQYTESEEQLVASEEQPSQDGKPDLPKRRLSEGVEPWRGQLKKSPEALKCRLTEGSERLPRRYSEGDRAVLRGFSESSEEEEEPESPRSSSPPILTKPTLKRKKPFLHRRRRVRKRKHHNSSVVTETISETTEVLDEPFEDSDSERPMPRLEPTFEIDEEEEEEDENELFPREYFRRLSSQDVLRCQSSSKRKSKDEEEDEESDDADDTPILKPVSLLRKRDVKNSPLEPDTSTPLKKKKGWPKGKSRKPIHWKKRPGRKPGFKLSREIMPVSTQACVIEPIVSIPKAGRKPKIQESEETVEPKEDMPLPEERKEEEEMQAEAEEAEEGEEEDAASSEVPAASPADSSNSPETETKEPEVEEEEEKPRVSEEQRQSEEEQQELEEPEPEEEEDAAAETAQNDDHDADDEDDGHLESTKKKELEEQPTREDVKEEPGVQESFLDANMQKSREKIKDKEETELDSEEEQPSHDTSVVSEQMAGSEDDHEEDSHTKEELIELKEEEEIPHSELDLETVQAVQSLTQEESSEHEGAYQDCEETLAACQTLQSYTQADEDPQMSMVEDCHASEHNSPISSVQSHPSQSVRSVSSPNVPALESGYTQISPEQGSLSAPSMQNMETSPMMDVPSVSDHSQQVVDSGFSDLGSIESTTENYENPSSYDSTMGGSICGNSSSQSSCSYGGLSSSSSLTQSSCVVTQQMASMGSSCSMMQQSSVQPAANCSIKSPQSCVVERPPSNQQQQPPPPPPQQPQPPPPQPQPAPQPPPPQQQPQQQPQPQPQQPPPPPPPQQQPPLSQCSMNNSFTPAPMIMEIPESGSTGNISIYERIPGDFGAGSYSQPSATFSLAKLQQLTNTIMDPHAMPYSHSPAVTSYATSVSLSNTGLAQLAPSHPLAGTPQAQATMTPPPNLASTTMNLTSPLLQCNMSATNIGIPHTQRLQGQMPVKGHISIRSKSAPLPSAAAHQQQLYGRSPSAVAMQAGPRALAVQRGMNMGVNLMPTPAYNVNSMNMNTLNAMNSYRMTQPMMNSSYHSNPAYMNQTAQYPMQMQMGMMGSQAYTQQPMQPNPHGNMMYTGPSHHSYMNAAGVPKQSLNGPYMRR

Columns and labels:
[1] = biological target: KAT6A^FL-BRPF1 2-protein complex (KAT6A^FL 2-plex) (human) (UniProt Q92794)
[2] = biological target: KAT6A^FL 4-protein complex (KAT6A^FL 4-plex) (UniProt Q92794)

KM of steady-state acetylation of the peptide (CoA formation by MS; 20 μM AcCoA, 25 °C) [1]: 11 µM
KM of steady-state acetylation of the peptide (CoA formation by MS; 20 μM AcCoA, 25 °C) [2]: 13 µM
Substance: H3 (1-21) (peptide)
